Values of other authors in publication PMC9166750.

By UniProt entry, the sequences of proteins in these tests, tags left out.
UniProt P60880, whole entry: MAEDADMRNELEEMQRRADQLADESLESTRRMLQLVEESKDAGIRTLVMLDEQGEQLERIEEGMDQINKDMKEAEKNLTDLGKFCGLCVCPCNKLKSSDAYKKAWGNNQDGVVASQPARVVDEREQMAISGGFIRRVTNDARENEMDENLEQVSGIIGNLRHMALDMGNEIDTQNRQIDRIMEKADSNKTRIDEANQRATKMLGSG
UniProt Q16623, whole entry: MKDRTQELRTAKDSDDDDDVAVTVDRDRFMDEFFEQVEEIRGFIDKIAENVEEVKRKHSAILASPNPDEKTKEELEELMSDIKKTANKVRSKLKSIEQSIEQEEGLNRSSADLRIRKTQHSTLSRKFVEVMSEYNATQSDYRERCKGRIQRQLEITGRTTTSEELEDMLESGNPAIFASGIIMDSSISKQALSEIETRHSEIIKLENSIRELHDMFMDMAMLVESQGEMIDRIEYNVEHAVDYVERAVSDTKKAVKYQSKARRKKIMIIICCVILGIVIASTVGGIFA

Biological target: SNAP-25 (UniProt P60880)
Conditions: cited from earlier work

In the case of Syntaxin-1a (from UniProt Q16623), the Kd is listed as 126 nM.
